## scFv variants of Ab-14 (heavy chain) against a SARS-CoV-2 spike peptide

Target peptide (SARS-CoV-2 spike, HR2 region): PDVDLGDISGINAS

Parent scFv Ab-14: VH joined to VL by a (GGGGS)3 linker. Changes lie in the heavy chain CDRs alone.
VH: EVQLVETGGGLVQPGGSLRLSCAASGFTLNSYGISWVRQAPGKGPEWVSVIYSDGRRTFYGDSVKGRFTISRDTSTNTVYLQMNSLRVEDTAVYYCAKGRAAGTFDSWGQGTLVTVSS
VL: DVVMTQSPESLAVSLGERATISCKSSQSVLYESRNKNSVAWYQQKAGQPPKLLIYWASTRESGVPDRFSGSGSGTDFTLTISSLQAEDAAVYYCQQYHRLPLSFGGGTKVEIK

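Phage display of a naive human antibody library on the peptide gave the parent. Variants in AAYL49 differ from the parent at up to three CDR positions; double and triple changes were sampled at random. The assay is AlphaSeq: two haploid yeast populations carry antibody and antigen on their surface. Binding brings cells together so that they mate, and sequencing counts the barcode pairs among the diploids. The ratio of observed to expected reads was calibrated, replicate by replicate, on BCL2-family standards whose Kd was known from biolayer interferometry. The assay was run in three technical replicates.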

Substitutions are numbered in sequence along the VH above, starting at 1 (not Kabat).
Only single mutants are listed, position by position.
The Kd shown is the geometric mean over detected replicates; a lower Kd is a better binder.
Where no diploid with the target was found in any replicate, the entry reads "no signal": below detection, most likely a poor binder, though not proof of it.
As a blank, each scFv also met three strains without target: over library AAYL49, 15% of these pairings were detected, typically at 11 µM and seldom below 680 nM. For each scFv, signals with the empty controls are counted beside the result.
In this assay the parent's reference entry averaged 4.4 nM; its copy inside this library read 13 µM (one replicate of three).

| changes | apparent Kd | seen in | signal with controls |
|---|---|---|---|
| T28I | 17 nM | 3/3 | 2/9 |
| T28F | 19 nM | 3/3 | 2/9 |
| T28C | 16 nM | 3/3 | 1/9 |
| T28R | 8.8 nM | 3/3 | 1/9 |
| T28K | 7.1 nM | 3/3 | 2/9 |
| T28M | 15 nM | 3/3 | 0/9 |
| T28H | 25 nM | 3/3 | 0/9 |
| T28E | 2.0 nM | 3/3 | 4/9 |
| T28G | 19 nM | 3/3 | 0/9 |
| T28Q | 5.6 nM | 3/3 | 5/9 |
| T28L | 6.0 nM | 3/3 | 1/9 |
| T28A | 200 µM | 2/3 | 4/9 |
| T28W | 46 nM | 3/3 | 2/9 |
| T28Y | 37 nM | 3/3 | 0/9 |
| T28V | 15 nM | 3/3 | 0/9 |
| T28N | 3.7 nM | 3/3 | 1/9 |
| L29F | 63 nM | 3/3 | 1/9 |
| L29E | no signal | 0/3 | 3/9 |
| L29H | 86 µM | 1/3 | 3/9 |
| L29N | 8.8 µM | 2/3 | 7/9 |
| L29Y | 6.8 nM | 3/3 | 1/9 |
| L29P | 84 nM | 1/3 | 0/9 |
| L29V | 170 nM | 2/3 | 0/9 |
| L29R | 2.9 µM | 1/3 | 0/9 |
| L29K | 320 µM | 1/3 | 1/9 |
| L29A | 950 nM | 3/3 | 4/9 |
| L29G | 1.5 µM | 1/3 | 4/9 |
| L29C | 2.1 µM | 1/3 | 2/9 |
| L29T | 3.4 µM | 2/3 | 1/9 |
| L29I | 14 nM | 3/3 | 0/9 |
| L29D | 2.6 µM | 3/3 | 5/9 |
| L29W | no signal | 0/3 | 0/9 |
| L29Q | 1.7 µM | 1/3 | 1/9 |
| N30C | 13 µM | 2/3 | 4/9 |
| N30I | 350 nM | 3/3 | 0/9 |
| N30A | 38 nM | 3/3 | 0/9 |
| N30M | 9.2 nM | 3/3 | 0/9 |
| N30S | 6.0 nM | 3/3 | 2/9 |
| N30R | 24 nM | 3/3 | 2/9 |
| N30L | 26 nM | 3/3 | 1/9 |
| N30T | 8.1 nM | 3/3 | 1/9 |
| N30F | 76 nM | 3/3 | 0/9 |
| N30W | 100 nM | 3/3 | 1/9 |
| N30V | 170 nM | 3/3 | 0/9 |
| N30K | 8.9 nM | 3/3 | 0/9 |
| N30D | 530 nM | 1/3 | 0/9 |
| N30H | 13 nM | 3/3 | 2/9 |
| N30Q | 2.7 µM | 3/3 | 0/9 |
| N30P | 730 nM | 3/3 | 2/9 |
| N30G | 30 nM | 3/3 | 0/9 |
| S31G | 1.1 µM | 3/3 | 0/9 |
| S31I | 350 nM | 3/3 | 4/9 |
| S31E | 34 nM | 3/3 | 5/9 |
| S31R | 40 nM | 3/3 | 2/9 |
| S31F | 550 nM | 3/3 | 0/9 |
| S31H | 13 nM | 3/3 | 2/9 |
| S31W | 75 nM | 3/3 | 1/9 |
| S31A | 13 nM | 3/3 | 4/9 |
| S31K | 11 nM | 3/3 | 1/9 |
| S31T | 66 nM | 3/3 | 4/9 |
| S31Y | 28 nM | 3/3 | 0/9 |
| S31V | 54 nM | 3/3 | 0/9 |
| S31N | 4.0 nM | 3/3 | 0/9 |
| S31Q | no signal | 0/3 | 1/9 |
| S31D | 4.2 nM | 3/3 | 0/9 |
| S31L | 29 nM | 3/3 | 1/9 |
| S31P | no signal | 0/3 | 0/9 |
| S31M | no signal | 0/3 | 1/9 |
| Y32H | 110 nM | 3/3 | 4/9 |
| Y32D | 99 µM | 1/3 | 1/9 |
| Y32I | 5.1 µM | 3/3 | 2/9 |
| Y32S | no signal | 0/3 | 2/9 |
| Y32V | 240 nM | 3/3 | 0/9 |
| Y32A | 3.8 µM | 3/3 | 1/9 |
| Y32G | no signal | 0/3 | 3/9 |
| Y32T | 2.3 µM | 3/3 | 3/9 |
| Y32R | 130 µM | 2/3 | 1/9 |
| Y32L | 78 nM | 3/3 | 1/9 |

Data: MIT Lincoln Laboratory AlphaSeq set, Engelhart et al. 2022, doi:10.1038/s41597-022-01779-4, as distributed in FLAb.